Test results: patent US6126918A, “Screening assays to identify therapeutic agents for amyloidosis” (Imperial College Innovations Limited, priority 1993, dated 2000)

Test system: amyloid fibrils of AA, AL and apoAI type
Experiment: Proteinase digestion of ex vivo amyloid fibrils (AA, AL, apoAI) in vitro
Format: biochemical, human
Conditions: protein added to incubation mixtures, 37° C.
Method: Digestion was monitored by analysis of the incubation mixtures in reduced SDS-PAGE and also by release of trichloroacetic acid (TCA)-soluble radioactivity when the fibrils had been oxidatively labelled with ^125 I. Incubation of such labelled fibrils with cultured monocyte-derived macrophages also led to digestion.
This inhibition was dose and time-dependent and was not observed when other proteins, C-reactive protein (CRP) and human serum albumin, were added as controls in place of SAP.

## albumin: human serum albumin, control protein
  Effect on fibril digestion by proteinases: both it and the fibrils were completely digested
